Yeast mating assay B: variants of the scFv Ab-14

The measurements come from Li et al. 2023 (doi:10.1038/s41467-023-39022-2) through the FLAb antibody collection.

All variants were tested on one target, the spike HR2 peptide PDVDLGDISGINAS (SARS-CoV-2).

Ab-14 is the parent antibody, in scFv form: VH, then a (GGGGS)3 linker, then VL. The heavy chain is unchanged in all variants.
VH: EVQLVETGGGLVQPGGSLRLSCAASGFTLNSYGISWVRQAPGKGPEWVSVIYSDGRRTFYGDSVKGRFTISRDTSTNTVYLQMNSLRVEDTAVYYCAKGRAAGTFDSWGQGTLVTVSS
VL: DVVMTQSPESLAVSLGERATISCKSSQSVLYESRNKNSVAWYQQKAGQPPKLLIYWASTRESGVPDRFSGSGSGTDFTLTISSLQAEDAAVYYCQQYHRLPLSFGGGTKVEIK

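The parent was found by panning a naive human phage display library on the peptide. These sequences belong to a second round, designed from the earlier measurements on random variants of the parent. Group labels follow the data file (Ctrl: baseline library sampled from a position-specific scoring matrix, with some repeated check sequences; Rand: our label for a block that the file lists under HC and that is probably the random mutants of the ten best first-round binders; GP: Gaussian process model; HC: hill climbing; Gen: genetic algorithm; Gibbs: Gibbs sampling; a sequence that several methods proposed may carry one label only). AlphaSeq pools MATa yeast showing the antibodies with MATalpha yeast showing the peptide. The frequency of each diploid, read from paired DNA barcodes, reflects how well the two displayed proteins bind. Scores were corrected for input abundance and mapped to Kd with protein pairs of known affinity run in the same pool. There are six technical replicates.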

Each variant is given by its three light chain CDRs, as the data file delimits them; those of the parent are KSSQSVLYESRNKNSVA, WASTRES, QQYHRLPLS. Variants here have at most six changes. Kd is apparent (estimated from mating counts) and averaged on the log scale over replicates with a signal. Smaller is tighter. "nd" means that the variant was in the library but no mating with the target was seen in any replicate; the authors take this as a sign of poor binding, and no number exists.

- KLSNSNLYESRNGNSVA, NASTRYS, QQYHRLPLS [GP_Gibbs] -> 900 pM (6 of 6 replicates; controls 2 of 18)
- KSSQSVLYESREKNSVA, QGSTRES, QQYHRLPLS [Ctrl] -> 5.1 nM (6 of 6 replicates; controls 1 of 18)
- KSSQSGLMESRNKNSVA, WASTRVS, QQYHRLELG [Ctrl] -> 33 nM (5 of 6 replicates; controls 1 of 18)
- KSSQSVLYESRTKNSVA, AASTRES, QQYHRLPLC [Ctrl] -> 1.7 nM (6 of 6 replicates; controls 0 of 18)
- KISQSVLYESRNKNSIA, WASTRES, QCYHRLPLS [Ctrl] -> 69 nM (1 of 6 replicates; controls 0 of 18)
- KLRQSTLYESRNKNSVA, QASTRES, QQYHRLPLS [GP_HC] -> 1.7 nM (6 of 6 replicates; controls 0 of 18)
- KLDQSQLYESRNKNSVA, QASTRES, QQYHRLPLS [GP_Gen] -> 600 pM (6 of 6 replicates; controls 0 of 18)
- KSSQSVLYESRNKNSVA, SASLRES, QQYHRLPLS [Ctrl] -> 2.8 nM (6 of 6 replicates; controls 1 of 18)
- KQSTSVLQESRNKNSVA, DASTRES, QQYHRLPLS [GP_HC] -> 1.2 nM (6 of 6 replicates; controls 4 of 18)
- KSSQSVLYESRNKNGVA, WASTRES, QQYARLPLD [Ctrl] -> nd (0 of 6 replicates; controls 1 of 18)
- KSSQPVLYESRNKNSVA, WASTRLS, QQYHRLPLS [Ctrl] -> 60 nM (3 of 6 replicates; controls 0 of 18)
- KVQQSVLYESRMKNSVA, DASTRCS, QQYHRLPLS [GP_HC] -> 2.2 nM (6 of 6 replicates; controls 3 of 18)
- KVSPSWLYESRNKNSVA, QASTRES, QQYHRLPLS [GP_HC] -> 940 pM (6 of 6 replicates; controls 2 of 18)
- KSYQSVLYESRDKNSVA, HASTRED, QQYHRLPLS [GP_HC] -> 24 nM (6 of 6 replicates; controls 0 of 18)
- KLQQSVLYESRNKNSVA, GASTRSS, QQYHRLPLS [GP_Gen] -> 700 pM (6 of 6 replicates; controls 2 of 18)
- KSSQSVLYESRNENSVA, WASTRES, QQYHRLPLS [Ctrl] -> 4.9 nM (6 of 6 replicates; controls 0 of 18)
- KMPQSVLYESRNKNSVA, EASTRES, QQYHRLPLS [GP_Gen] -> 510 pM (6 of 6 replicates; controls 1 of 18)
- KFEQSFLYESRNKNSVA, NASQRES, QQYHRLPLS [GP_Gen] -> 490 pM (6 of 6 replicates; controls 0 of 18)
- KVSQSVLYESRNKNSVA, EASTRES, QQYHRLPLI [GP_Gen] -> 840 pM (6 of 6 replicates; controls 0 of 18)
- HSSPLVLYESRNKNHVE, NASTRES, QQYHRLPLS [Rand] -> nd (0 of 6 replicates; controls 0 of 18)
- KVSQSYLYESRNKNSVA, NASTRLS, QQYHRLPLS [GP_Gen] -> 570 pM (6 of 6 replicates; controls 2 of 18)
- RSSQGVLKESRNKNSVA, WASTRES, QQYHRLPLS [Ctrl] -> 12 nM (6 of 6 replicates; controls 1 of 18)
- KSSQIVLYESRNKNSVA, GASTRSS, QQYHRLPLS [Ctrl] -> 11 nM (6 of 6 replicates; controls 0 of 18)
- WMSQSVLYESMNKNSVS, WASTRVS, QQYHRLPWS [Ctrl] -> 48 nM (1 of 6 replicates; controls 0 of 18)
- KLSQSGLYESRNKNSVA, EASTREV, QQYHRLPLS [GP_Gen] -> 480 pM (6 of 6 replicates; controls 0 of 18)
- KYQQSVLYESRNKNNVA, HASTRED, QQYHRLPLS [GP_HC] -> 2.7 nM (6 of 6 replicates; controls 0 of 18)
- KLRQSTLYESRNPNSVA, GASTRES, QQYHRLPLS [GP_HC] -> 430 pM (6 of 6 replicates; controls 0 of 18)
- KVSQSMLYESRNKNAVA, EASTRES, QQYHRLPLS [GP_Gen] -> 440 pM (6 of 6 replicates; controls 1 of 18)
- KSSWSYLEESRNKNSVA, EASTRES, QQYHRLPLS [GP_HC] -> 1.5 nM (6 of 6 replicates; controls 2 of 18)
- KSPWSVLYESRNKNSVA, HASTRED, QQYHRLPLS [GP_HC] -> 2.6 nM (6 of 6 replicates; controls 0 of 18)

The opening 5 entries, copied out:

CDR-L1,CDR-L2,CDR-L3,group,Kd,replicates with signal,empty controls
KLSNSNLYESRNGNSVA,NASTRYS,QQYHRLPLS,GP_Gibbs,900 pM,6/6,2/18
KSSQSVLYESREKNSVA,QGSTRES,QQYHRLPLS,Ctrl,5.1 nM,6/6,1/18
KSSQSGLMESRNKNSVA,WASTRVS,QQYHRLELG,Ctrl,33 nM,5/6,1/18
KSSQSVLYESRTKNSVA,AASTRES,QQYHRLPLC,Ctrl,1.7 nM,6/6,0/18
KISQSVLYESRNKNSIA,WASTRES,QCYHRLPLS,Ctrl,69 nM,1/6,0/18

The range of this assay differs from that of the first round, and the authors advise against merging the two. The authors averaged sequences with at least three values out of six and counted those with two or fewer as poor binders. Three control strains display no target. For all light chain designs, 4% of the pairings with them gave a signal, with a median of 430 nM and one signal in twenty below 38 nM, so weak values seen in few replicates may be background. Also given: how often the same scFv was detected with the empty control strains.